Data from patent US11035858B2, “Methods of isolating barrel-like proteases and identifying peptides processed thereby” (Yeda Research and Development Co. Ltd., priority 2016, dated 2021).

Amino acid sequences for entries named in this document (tags omitted). A change or cut given only in a name is not applied to a line headed by its entry.
UniProt P28074: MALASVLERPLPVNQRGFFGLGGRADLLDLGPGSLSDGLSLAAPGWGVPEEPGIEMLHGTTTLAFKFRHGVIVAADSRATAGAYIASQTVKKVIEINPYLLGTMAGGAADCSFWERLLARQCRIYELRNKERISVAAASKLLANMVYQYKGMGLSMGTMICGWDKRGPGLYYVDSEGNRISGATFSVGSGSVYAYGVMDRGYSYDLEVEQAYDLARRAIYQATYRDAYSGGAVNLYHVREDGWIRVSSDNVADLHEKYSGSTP

Target: proteasome (Homo sapiens, UniProt P28074)
Settings: HEK293 cell lysate; Velcade 40 nM; FIG. 7

With CC(C)C[C@H](NC(=O)[C@H](Cc1ccccc1)NC(=O)c1cnccn1)B(O)O [Velcade] the “number of identified peptides” value was “significantly reduced”.
